Results on one compound are retold here after ChEMBL document CHEMBL1240413, “Synthesis and evaluation of vinyl sulfones as caspase-3 inhibitors. A structure-activity study” (Eur J Med Chem, 2010).

The assay deals with T1, Caspase-3 (Homo sapiens, UniProt P42574).
T1 sequence (P42574 whole entry): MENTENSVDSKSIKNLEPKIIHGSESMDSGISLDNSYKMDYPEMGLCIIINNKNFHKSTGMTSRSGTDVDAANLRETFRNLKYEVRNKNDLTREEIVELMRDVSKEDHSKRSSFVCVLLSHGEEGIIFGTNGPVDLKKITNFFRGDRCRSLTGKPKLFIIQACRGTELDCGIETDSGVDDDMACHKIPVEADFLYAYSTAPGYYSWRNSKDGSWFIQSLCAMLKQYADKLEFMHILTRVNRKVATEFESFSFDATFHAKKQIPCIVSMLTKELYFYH
Description: Inhibition of human recombinant caspase 3 assessed as fluorescent 7-amido-4-methylcoumarin release.

Consider `CC(=O)N[C@@H](CC(=O)O)C(=O)N[C@@H](CCC(=O)O)C(=O)N[C@H](C(=O)N[C@H](C=O)CC(=O)O)C(C)C`, for which the half-inhibitory concentration (IC50) (as a rule, the concentration at which inhibition is half-maximal) came out at 1.6 nM.
